{"source": "patent US8030306B2", "about": "“Azabicyclic heterocycles as cannabinoid receptor modulators” (Bristol-Myers Squibb Company, priority 2006, dated 2011)", "origin": "cited, not measured here", "conditions": "chronic administration for two weeks; cited from earlier work", "data": [{"substance": "AM-251", "values": [{"measurement": "body weight and adipose tissue mass", "result": "substantial body weight reduction and decreased adipose tissue mass"}]}]}
